Measured values from US8211874B2, “Inhibition of thrombin generation” (Galderma Laboratories Inc., priority 2005, dated 2012).

Settings: in vivo

Substance: tetracycline pyrazole [COL-5]
- biodistribution: only limited biodistribution
